Results as given in patent US7414062B2, “Triazaspiro compounds useful for treating or preventing pain” (dated 2008).

By UniProt entry, the sequences of proteins in these tests, tags left out.
UniProt P35372, whole entry: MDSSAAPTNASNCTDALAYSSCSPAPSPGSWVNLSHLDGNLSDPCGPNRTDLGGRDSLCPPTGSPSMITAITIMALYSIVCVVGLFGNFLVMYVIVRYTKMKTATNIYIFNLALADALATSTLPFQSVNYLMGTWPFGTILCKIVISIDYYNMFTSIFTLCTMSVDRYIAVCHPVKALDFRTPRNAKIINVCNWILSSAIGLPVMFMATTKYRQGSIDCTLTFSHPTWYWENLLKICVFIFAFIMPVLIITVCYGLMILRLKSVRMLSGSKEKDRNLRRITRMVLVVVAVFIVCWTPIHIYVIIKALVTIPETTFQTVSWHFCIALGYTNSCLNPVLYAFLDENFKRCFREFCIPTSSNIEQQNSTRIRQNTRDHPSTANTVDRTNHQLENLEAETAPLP
UniProt P41146, whole entry: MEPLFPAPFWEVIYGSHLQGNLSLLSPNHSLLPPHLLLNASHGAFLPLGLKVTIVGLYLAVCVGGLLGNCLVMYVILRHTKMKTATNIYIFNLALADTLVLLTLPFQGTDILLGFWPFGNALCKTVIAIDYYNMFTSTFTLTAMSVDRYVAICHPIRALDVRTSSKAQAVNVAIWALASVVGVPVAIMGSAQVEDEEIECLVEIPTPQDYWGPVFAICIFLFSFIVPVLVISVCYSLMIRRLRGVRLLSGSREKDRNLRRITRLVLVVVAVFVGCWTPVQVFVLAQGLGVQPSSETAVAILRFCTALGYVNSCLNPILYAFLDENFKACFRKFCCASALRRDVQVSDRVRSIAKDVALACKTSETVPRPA

Columns and labels:
μ-opioid receptor [1] = target: T1, μ-opioid receptor (Homo sapiens, UniProt P35372); experiment: μ-receptor radioligand dose-displacement binding assay ([3H]-diprenorphine); settings: read-out: binding constant Ki, μ-opioid receptors; displacement of 0.2 nM [3H]-diprenorphine
Method: Radioligand dose-displacement binding assays for ORL-1 and μ receptors used 0.1 nM [^3H]-nociceptin or 0.2 nM [^3H]-diprenorphine (NEN, Boston, Mass.), respectively, with […] membrane protein/well in a final volume of […] binding buffer (10 mM MgCl2, 1 mM EDTA, 5% DMSO, 50 mM HEPES, pH 7.4). Reactions were carried out in the absence or presence of increasing concentrations of unlabled nociceptin (American Peptide Company, Sunnyvale, Calif.) or naloxone, for ORL-1 and μ, respectively. All reactions were conducted in 96-deep well polypropylene plates for 1-2 h at room temperature. Binding reactions were terminated by rapid filtration onto 96-well Unifilter GF/C filter plates (Packard, Meriden, Conn.) presoaked in 0.5% polyethylenimine using a 96-well tissue harvester (Brandel, Gaithersburg, Md.) followed performing by three filtration washes with 500 mL of ice-cold binding buffer. Filter plates were subsequently dried at 50° C. for 2-3 h. BetaScint scintillation cocktail (Wallac, Turku, Finland) was added ([…]/well), and plates were counted using a Packard Top-Count for 1 min/well. The data were analyzed using the one-site competition curve fitting functions in GraphPad PRISM v. 3.0 (San Diego, Calif.).

[2] = target: human opioid receptor-like (ORL-1) receptor (Homo sapiens, UniProt P41146); experiment: ORL-1 receptor radioligand dose-displacement binding assay ([3H]-nociceptin); settings: read-out: binding constant Ki, ORL-1 receptors; displacement of 0.1 nM [3H]-nociceptin; HEK-293 membranes
Method: All reagents were from obtained from Sigma (St. Loius, Mo.) unless noted otherwise. Membranes from recombinant HEK-293 cells expressing the human opioid receptor-like (ORL-1) receptor (Perkin Elmer, Boston, Mass.) were prepared by lysing cells in ice-cold hypotonic buffer (2.5 mM MgCl2, 50 mM HEPES, pH 7.4) (10 mL/10 cm dish), followed by homogenization with a tissue grinder/teflon pestle. Membranes were collected by centrifugation at 30,000×g for 15 min at 4° C., and pellets were resuspended in hypotonic buffer to a final concentration of 1-3 mg/mL. Protein concentrations were determined using the BioRad (Hercules, Calif.) protein assay reagent with bovine serum albumen as standard. Aliquots of the ORL-1 receptor membranes were stored at −80° C.
Radioligand dose-displacement binding assays for ORL-1 and μ receptors used 0.1 nM [^3H]-nociceptin or 0.2 nM [^3H]-diprenorphine (NEN, Boston, Mass.), respectively, with […] membrane protein/well in a final volume of […] binding buffer (10 mM MgCl2, 1 mM EDTA, 5% DMSO, 50 mM HEPES, pH 7.4). […] BetaScint scintillation cocktail (Wallac, Turku, Finland) was added ([…]/well), and plates were counted using a Packard Top-Count for 1 min/well. The data were analyzed using the one-site competition curve fitting functions in GraphPad PRISM v. […]

μ-opioid receptor [3] = target: T1, μ-opioid receptor; experiment: [35S]GTPgS functional assay, μ-receptor membranes
Method: (§1) [^35S]GTPgS functional assays were conducted using freshly thawed ORL-1 or μ-receptor membranes, as appropriate. Assay reactions were prepared by sequentially adding the following reagents to binding buffer (100 mM NaCl, 10 mM MgCl2, 20 mM HEPES, pH 7.4) on ice (final concentrations indicated): membrane protein (0.066 mg/mL for ORL-1 receptor and 0.026 mg/mL for μ-receptor), saponin (10 mg/ml), GDP (3 mM) and [^35S]GTPgS (0.20 nM; NEN). The prepared membrane solution ([…]/well) was transferred to 96-shallow well polypropylene plates containing 10 mL of 20× concentrated stock solutions of the agonist nociceptin prepared in dimethyl sulfoxide (“DMSO”). Plates were incubated for 30 min at room temperature with shaking. Reactions were terminated by rapid filtration onto 96-well Unifilter GF/B filter plates (Packard, Meriden, Conn.) using a 96-well tissue harvester (Brandel, Gaithersburg, Md.) followed by three filtration washes with 200 mL of ice-cold binding buffer (10 mM NaH2PO4, 10 mM Na2HPO4, pH 7.4). Filter plates were subsequently dried at 50° C. for 2-3 h. BetaScint scintillation cocktail (Wallac, Turku, Finland) was added ([…]/well) and plates were counted using a Packard Top-Count for 1 min/well. Data were analyzed using the sigmoidal dose-response curve fitting functions in GraphPad PRISM, v. 3.0. […]

ORL-1 receptor = ORL-1 receptor (Homo sapiens, UniProt P41146); experiment: [35S]GTPgS functional assay, ORL-1 receptor membranes; settings: maximal effect relative to nociceptin
Method: as §1

Question: Which results are given for CCOC(=O)CN1CN(c2ccccc2)C2(CCN(CCC(c3ccccc3)c3ccccc3)CC2)C1=O?
Answer: Ki (μ-opioid receptor [1]): 2.9 nM; Ki [2]: 18 nM; μ GTP Emax (μ-opioid receptor [3]; maximal effect relative to DAMGO): 88%; EC50 (μ-opioid receptor [3]; read-out: μ GTP EC50, [35S]GTPgS, μ-receptor membranes): 44 nM; ORL-1 GTP Emax (ORL-1 receptor): 95%
